Test results published in US20050281814A1, “Combination radiation therapy and chemotherapy in conjunction with administration of growth factor receptor antibody” (priority 2000, published 2005).

Tested on: MAI PaCa-2 cells
Assay: MiaPaCa-2 xenograft tumor therapy study with Herceptin, gemcitabine and radiation
Type: in vivo, athymic nude mice
Settings: Herceptin 1 mg i.p. every 3 days ×12, gemcitabine 120 mg/kg every 6 days ×6, radiation 3 Gy every 6 days ×6

Herceptin: anti-erbB-2 monoclonal antibody available commercially from Genentech, used for treatment of breast cancer
tumor regressions (percent of group): 12.5%
